Here are results for one molecule from US10722578B2, “Methods and compositions for treating neuroblastoma” (The Children's Hospital of Philadelphia, priority 2008, dated 2020).

One test concerns SKNAS (WT) xenografts. The following applies: 100 mg/kg/day oral gavage, 4 weeks, vs vehicle.
The next test concerns NBEBc1 (WT) xenografts. The following applies: 100 mg/kg/day oral gavage, 4 weeks, vs vehicle.

Read-outs that look alike come from different tables or passages of the source.

`C[C@@H](Oc1cc(-c2cnn(C3CCNCC3)c2)cnc1N)c1c(Cl)ccc(F)c1Cl` [PF-02341066, crizotinib]: the Tumor growth delay result is given as “no tumor growth delay” with SKNAS (WT) xenografts, “neither a delay in tumor growth” in the test with SKNAS (WT) xenografts (listed as PF-2341066), “significant tumor growth delay” with NBEBc1 (WT) xenografts and “significant delayed tumor progression” in the test on NBEBc1 (WT) xenografts (listed as PF-2341066).
